Assay: Gaboxadol plasma concentration profiles: single-dose crossover PK study, oral capsules 2.5-20 mg and 10 mg I.V.
Settings: geometric mean N=10

Oc1noc2c1CCNC2 [gaboxadol, 4,5,6,7-tetrahydroisoxazolo [5,4-c] pyridine-3-ol]
Ccoi (in Cmax row): 212 ng/mL

Source: US20220110917A1 (priority 2018, published 2022)
